Earlier results, collected in US6118050A, “Hydroxyphenylpyruvate dioxygenase gene from arabidopsis and method of screening for inhibitors thereof” (American Cyanamid Company, priority 1997, dated 2000).

System: HPPD
Settings: hereditary tyrosinemia type 1 (Ellis et al., 1995); cited from earlier work

Structure (SMILES): O=C1CCCC(=O)C1C(=O)c1ccc(C(F)(F)F)cc1[N+](=O)[O-] [NTBC, 2-(2-nitro-4-trifluoromethylbenzoyl)-1,3-cyclohexanedione]
- effect on intermediates of tyrosine catabolism that are hepatotoxic: prevents the buildup
